In the library only some 16% were active in any assay of this set; here they are far more common.
DT40 TDP1 no CPT = qHTS for Inhibitors of human tyrosyl-DNA phosphodiesterase 1 (TDP1): qHTS in cells in absence of CPT. Potency, µM (doses to about 46.2 µM), inactives show at the highest dose activity change, negative = growth inhibition, most hits filed as inhibitors. DT40 Tdp1-/- hTDP1 cells, no CPT, ATP luminescence, 48 h. 15% of 420,000 active; note: potency is the fitted concentration of half-maximal effect; % is set by controls: 0 for no effect and ±100 for the full control effect; nearly all actives have a fitted effect of over 55% in size
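Compound effects on proliferation are scored in DT40 Tdp1-/-;hTDP1 cells in the absence of CPT. ATP levels (CellTiter-Glo luminescence) are recorded after a ≥48 hr, 37 °C incubation.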
miR-21 reporter = miR-21 reporter, rising signal. 340,000 tested, under 10 active. Potency, µM (highest dose often 38.3 µM), for the others: at the highest dose reporter change, positive = more light. HeLa miR-21 FLuc reporter, luciferase, 48 h. AID 2288; active = well fitted rising curve with a large enough effect; inconclusive = small, poorly fitted or top-dose-only effect; inactive = no such curve, though single readings can be large or run the other way;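 further: % of control where 0% means no effect; miR-21 action dims this reporter so a rising signal means less miR-21 action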
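Luminescence from a firefly luciferase reporter carrying a miR-21 binding site downstream, stably expressed under a CMV promoter in HeLa cells that make miR-21 endogenously, reports miRNA modulation after 48 h compound exposure up to approximately 40uM final.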
TDP1 inh = blocks human tyrosyl-DNA phosphodiesterase 1. Q9NUW8. 0.28% of 350,000 active. recombinant TDP1, AlphaScreen DNA substrate cleavage. Potency, µM (highest dose often 130 µM), for inactives: top-dose activity change, negative = inhibition, actives largely listed as inhibitors. AID 485290; note: potency is the fitted concentration of half-maximal effect; % is set by controls: 0 for no effect and ±100 for the full control effect; nearly all actives have a fitted effect of over 40% in size
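Recombinant human Tdp1 (E. coli-expressed, 1 nM final) preincubated with compounds 15 min at room temperature, then 5'-biotin/3'-phosphotyrosine-FITC DNA substrate (15 nM final) added for 5 min. AlphaScreen beads (10 ug/ml final) added 10 min; cleavage lowers signal.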
TDP1 cell CPT = growth inhibition of DT40 Tdp1-/-;hTDP1 cells with camptothecin (screen for TDP1 inhibitors); chicken DT40 Tdp1-/-;hTDP1 cells + 20 nM CPT, ATP luminescence, 48 h; Potency, µM (top dose mostly 46.2 µM), without a hit: top-dose activity change, negative = growth inhibition, actives largely listed as inhibitors; 12% of 420,000 active; note: potency is the fitted concentration of half-maximal effect; % is set by controls: 0 for no effect and ±100 for the full control effect; nearly all actives have a fitted effect of over 55% in size
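Chicken DT40 Tdp1-/- cells complemented with human TDP1, 400 cells/well, exposed to compounds plus 20 nM camptothecin for at least 48 h at 37 C; viability read as ATP content by CellTiter-Glo luminescence.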
uPA surface inh = inhibitors of cell surface uPA generation | AID 540303 | 0.31% of 330,000 active | Potency, µM (top dose mostly 38.3 µM), for inactives: at the highest dose activity change, negative = inhibition, usual class: inhibitors | cell surface uPA generation assay, qHTS; active = well fitted inhibition curve with a large enough effect; inconclusive = small, poorly fitted or top-dose-only effect; inactive = no such curve, though single readings can be large or run the other way; tested in mouse RAW 264.7 cells; note: potency is the fitted concentration of half-maximal effect; % is set by controls: 0 for no effect and ±100 for the full control effect; nearly all actives have a fitted effect of over 55% in size
* hit, by the source's call; ? = inconclusive; nt = no result given. Unless noted, calls come from the whole dose curve; as a rule, active = well fitted curve in the direction sought with a large enough effect; inconclusive = small, poorly fitted or top-dose-only effect, or another doubt; inactive = no such curve, though single readings can be large; an effect the other way counts as inactive or inconclusive.

Keys: A = DT40 TDP1 no CPT; B = miR-21 reporter; C = TDP1 inh; D = TDP1 cell CPT; E = uPA surface inh
CS(=O)(=O)/C(C#N)=C/c1cccn1S(=O)(=O)c1cccc2ccccc12
  A = 16µM* | B = nt | C = nt | D = 16µM* | E = nt

CC(C)(C)S(=O)(=O)/C(C#N)=C/c1cccn1S(=O)(=O)c1ccccc1
  A = 23µM* | B = nt | C = nt | D = -9% | E = nt

CS(=O)(=O)/C(C#N)=C/c1cccn1S(=O)(=O)c1ccccc1
  A = -1% | B = -2% | C = nt | D = 11% | E = 12%

COc1ccc(NC(=O)Nc2c(C)n(-c3ccccc3)c(=O)n2C)cc1OC
  A = -1% | B = -4% | C = -2% | D = 0% | E = 1%

CC(SC(C)C(=O)NN=Cc1cccc(Cl)c1)C(=O)NN=Cc1cccc(Cl)c1 (stereo unspecified)
  A = 16µM* | B = nt | C = nt | D = ? | E = 8%

O=C(N/N=C/c1cccc(NC(=O)c2ccc(Cl)cc2)c1)c1ccc(O)cc1
  A = 15µM* | B = -22% | C = nt | D = ? | E = ?

COc1cccc(C=NNC(=O)C(C)SC(C)C(=O)NN=Cc2cccc(OC)c2)c1 (stereo unspecified)
  A = ? | B = nt | C = nt | D = -2% | E = -1%

CC(C)(C)c1ccc(C(=O)N/N=C/c2cccc(Cl)c2)cc1
  A = 16µM* | B = -9% | C = 7% | D = ? | E = nt

O=C(N/N=C/c1ccncc1)c1cccc(NC(=O)c2ccc(Cl)cc2)c1
  A = 1% | B = 1% | C = 0% | D = -6% | E = -1%

CC1(C)CN2C(=S)N(c3ccccc3)C(c3ccccc3)N2C1 (stereo unspecified)
  A = -22% | B = -6% | C = 4% | D = 3% | E = -4%

Some of the entries so far, with tabs.
Structure	DT40 TDP1 no CPT	miR-21 reporter	TDP1 inh	TDP1 cell CPT	uPA surface inh
CS(=O)(=O)/C(C#N)=C/c1cccn1S(=O)(=O)c1cccc2ccccc12	16µM*	nt	nt	16µM*	nt
CC(C)(C)S(=O)(=O)/C(C#N)=C/c1cccn1S(=O)(=O)c1ccccc1	23µM*	nt	nt	-9%	nt

The listing continues.
Keys: A = DT40 TDP1 no CPT; B = miR-21 reporter; C = TDP1 inh; D = TDP1 cell CPT; E = uPA surface inh
COc1cccc(NC(=O)N2CCCC2C(=O)NCC(C)C)c1 (stereo unspecified)
  A = 1% | B = -4% | C = 0% | D = -7% | E = 0%

COC(=O)Cc1sc(-c2ccccn2)nc1-c1ccccc1
  A = 16µM* | B = -1% | C = 6% | D = ? | E = 7%

COc1ccc(NC(=O)C2CCCO2)cc1 (stereo unspecified)
  A = 18% | B = -33% | C = 2% | D = 2% | E = -7%

O=C(Nc1ccc(-c2nc3cccnc3s2)cc1)C1CCCO1 (stereo unspecified)
  A = 21µM* | B = 24% | C = 4% | D = 23µM* | E = 2.5µM*

CC(=O)Nc1ccc(-c2ccnc3c2CC(C(=O)Nc2cccc(C(C)=O)c2)O3)cc1 (stereo unspecified)
  A = 15µM* | B = nt | C = nt | D = ? | E = nt

CC(=O)c1cccc(-c2ccnc3c2CC(C(=O)Nc2ccc(C(C)C)cc2)O3)c1 (stereo unspecified)
  A = 10µM* | B = nt | C = nt | D = 23µM* | E = nt

CS(=O)(=O)Nc1cccc(NC(=O)C2Cc3c(-c4ccco4)ccnc3O2)c1 (stereo unspecified)
  A = 13µM* | B = nt | C = nt | D = ? | E = nt

CC(=O)c1cccc(-c2ccnc3c2CC(C(=O)Nc2cccc(C(F)(F)F)c2)O3)c1 (stereo unspecified)
  A = 13µM* | B = nt | C = nt | D = 26µM* | E = nt

Cc1cc(C)c2c(-n3cccc3)c(C(=O)NNS(=O)(=O)c3ccccc3)sc2n1
  A = -17% | B = -12% | C = 8% | D = -25% | E = -1%

CCOC(=O)c1sc2nc(C)nc(SC(C)C(=O)NC3CC3)c2c1C (stereo unspecified)
  A = -24% | B = nt | C = 0% | D = -19% | E = 13%

In a second layout: 2 of the compounds above
> CC(=O)c1cccc(-c2ccnc3c2CC(C(=O)Nc2ccc(C(C)C)cc2)O3)c1 (stereo unspecified)
  DT40 TDP1 no CPT: 10µM*
  miR-21 reporter: nt
  TDP1 inh: nt
  TDP1 cell CPT: 23µM*
  uPA surface inh: nt

> CCOC(=O)c1sc2nc(C)nc(SC(C)C(=O)NC3CC3)c2c1C (stereo unspecified)
  DT40 TDP1 no CPT: -24%
  miR-21 reporter: nt
  TDP1 inh: 0%
  TDP1 cell CPT: -19%
  uPA surface inh: 13%

Additional records
Keys: A = DT40 TDP1 no CPT; B = miR-21 reporter; C = TDP1 inh; D = TDP1 cell CPT; E = uPA surface inh
O=C(Nc1cccc(Oc2ccccc2)c1)C1Cc2c(-c3ccccc3)ccnc2O1 (stereo unspecified)
  A = ? | B = nt | C = nt | D = 23µM* | E = nt

CC(=O)Nc1ccc(-c2ccnc3c2CC(C(=O)Nc2ccc(Cl)c(C(F)(F)F)c2)O3)cc1 (stereo unspecified)
  A = ? | B = nt | C = nt | D = 21µM* | E = nt

CC(=O)c1cccc(-c2ccnc3c2CC(C(=O)Nc2cccc(NS(C)(=O)=O)c2)O3)c1 (stereo unspecified)
  A = 9.2µM* | B = nt | C = nt | D = 15µM* | E = nt

CC(=O)c1cccc(NC(=O)C2Cc3c(-c4cccc(C(N)=O)c4)ccnc3O2)c1 (stereo unspecified)
  A = 16µM* | B = nt | C = nt | D = 16µM* | E = nt

Cc1noc(C)c1CSCC(=O)Oc1ccc(N(C)S(=O)(=O)c2ccccc2)cc1
  A = -10% | B = nt | C = 3% | D = -9% | E = -19%

Cc1cc2oc(=O)c(CC(=O)O)c(C)c2c2occ(C(C)(C)C)c12
  A = -19% | B = -23% | C = nt | D = -2% | E = -11%

Cc1ccc(C)c(NS(=O)(=O)c2cc(C(N)=O)ccc2C)c1
  A = -15% | B = 0% | C = 5% | D = -21% | E = 11%

CC(=O)c1cccc(NC(=O)C2Cc3c(-c4cccc(C(C)=O)c4)ccnc3O2)c1 (stereo unspecified)
  A = 15µM* | B = nt | C = nt | D = 16µM* | E = nt

CC(=O)c1cccc(-c2ccnc3c2CC(C(=O)Nc2cccnc2)O3)c1 (stereo unspecified)
  A = -23% | B = nt | C = nt | D = 3% | E = nt

CC(=O)Nc1ccc(-c2ccnc3c2CC(C(=O)Nc2cccnc2)O3)cc1 (stereo unspecified)
  A = 3.7µM* | B = nt | C = nt | D = 5.2µM* | E = nt

Continued.
Below each compound – DT40 TDP1 no CPT, miR-21 reporter, TDP1 inh, TDP1 cell CPT, uPA surface inh
> CC(=O)c1cccc(NC(=O)C2Cc3c(-c4ccc5c(c4)OCO5)ccnc3O2)c1 (stereo unspecified)
→ 12µM*, nt, nt, 13µM*, nt
> O=C(Nc1cc(C(F)(F)F)ccc1N1CCCC1)C1CC(=O)N(Cc2ccccc2)C1 (stereo unspecified)
→ -17%, nt, nt, -9%, nt
> O=C(O)CSC1CC(=O)N(c2ccc(Br)cc2)C1=O (stereo unspecified)
→ 17%, -1%, 3%, ?, -5%
> CN(C)c1c2ccccc2nc2c(F)c(F)c(F)c(F)c12
→ 21µM*, -22%, 0%, 23µM*, -15%
> Cc1ccc(S(=O)(=O)N2CC(C(=O)O)=CC[C@H]2c2ccc3c(c2)OCO3)cc1
→ -7%, nt, 5%, -3%, 9%
> Cc1cc2nc3c(=O)[nH]c(=O)nc-3n(C)c2cc1C=O
→ nt, nt, 7%, nt, nt
> CCCC(=O)OC[C@@H](OC(=O)CCC)[C@@H](OC(=O)CCC)[C@H](Cn1c2nc(=O)[nH]c(=O)c-2nc2cc(C)c(C)cc21)OC(=O)CCC
→ 6µM*, nt, nt, 6.7µM*, nt
> CC(=O)OCCn1c2nc(=O)[nH]c(=O)c-2nc2cc(C)c(C)cc21
→ ?, 3%, 3.5µM*, ?, 4%
> CC(C)c1ccc(NC(=O)c2cc(S(=O)(=O)N3CCCC3)c[nH]2)cc1
→ ?, 7%, nt, ?, -13%
> CC1CN(C(=O)c2cnn3c(C(F)F)cc(-c4ccccc4)nc23)CC(C)O1 (stereo unspecified)
→ ?, -17%, 7%, -26%, -6%
> CCOC(=O)C1=C(NC(=S)NC(=O)c2ccccc2)c2ccccc2CC1C(C)C (stereo unspecified)
→ 23µM*, 21%, 5%, ?, -10%
> CCOC(=O)C(O)(CC(=O)c1ccc(OC)cc1)C(F)(F)F (stereo unspecified)
→ -8%, -5%, -2%, -2%, 0%
> Cc1cccc(-n2c(=O)cc(N3CCN(c4ccc(F)cc4)CC3)[nH]c2=O)c1
→ 18µM*, -3%, -5%, ?, -1%
